According to publication PMC8025677 (Cell, 2020):

Test system: electrically evoked 5-HT release in dorsal striatum slices
Design: species or system mouse
Conditions: bath application

COC(=O)[C@H]1[C@@H](OC(=O)c2ccccc2)C[C@@H]2CC[C@H]1N2C [cocaine]
effect on amplitude and decay kinetics of fluorescence transients (10 μM): neither amplitude nor decay kinetics of fluorescence transients was affected

COC(=O)[C@H]1[C@H]2C[C@@H]3c4[nH]c5cc(OC)ccc5c4CCN3C[C@H]2C[C@@H](OC(=O)c2cc(OC)c(OC)c(OC)c2)[C@@H]1OC [reserpine]
effect on amplitude and decay kinetics of fluorescence transients (1 μM): neither amplitude nor decay kinetics of fluorescence transients was affected

Like-named read-outs stand apart in the source and are kept apart here.
